The values that follow come from patent US20100015650.

The series has as its target T1, BRB1 tyrosine kinase substrate peptide.
T1 chain: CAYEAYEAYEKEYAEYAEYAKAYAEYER

B1: INSR (protein)
chain: RKRQPDGPLGPLYASSNPEYLSASDVFPCSVYVPDEWEVSREKITLLRELGQGSFGMVYEGNARDIIKGEAETRVAVKTVNESASLRERIEFLNEASVMKGFTCHHVVRLLGVVSKGQPTLVVMELMAHGDLKSYLRSLRPEAENNPGRPPPTLQEMIQMAAEIADGMAYLNAKKFVHRDLAARNCMVAHDFTVKIGDFGMTRDIYETDYYRKGGKGLLPVRWMAPESLKDGVFTTSSDMWSFGVVLWEITSLAEQPYQGLSNEQVLKFVMDGGYLDQPDNCPERVTDLMRMCWQFNPKMRPTFLEIVNLLKDDLHPSFPEVSFFHSEENKAPESEELEMEFEDMENVPLDRSSHCQREEAGGRDGGSSLGFKRSYEEHIPYTHMNGGKKNGRILTLPRSNPS
For B1, the Signal to Noise ratio with BRB1 Peptide (TR-FRET kinase assay; kinase 20 nM) came to 4.

B2: LCK (protein)
chain: MGCGCSSHPEDDWMENIDVCENCHYPIVPLDGKGTLLIRNGSEVRDPLVTYEGSNPPASPLQDNLVIALHSYEPSHDGDLGFEKGEQLRILEQSGEWWKAQSLTTGQEGFIPFNFVAKANSLEPEPWFFKNLSRKDAERQLLAPGNTHGSFLIRESESTAGSFSLSVRDFDQNQGEVVKHYKIRNLDNGGFYISPRITFPGLHELVRHYTNASDGLCTRLSRPCQTQKPQKPWWEDEWEVPRETLKLVERLGAGQFGEVWMGYYNGHTKVAVKSLKQGSMSPDAFLAEANLMKQLQHQRLVRLYAVVTQEPIYIITEYMENGSLVDFLKTPSGIKLTINKLLDMAAQIAEGMAFIEERNYIHRDLRAANILVSDTLSCKIADFGLARLIEDNEYTAREGAKFPIKWTAPEAINYGTFTIKSDVWSFGILLTEIVTHGRIPYPGMTNPEVIQNLERGYRMVRPDNCPEELYQLMRLCWKERPEDRPTFDYLRSVLEDFFTATEGQYQPQP
Turning to B2, the Signal to Noise Ratio with BRB1 Peptide (TR-FRET kinase assay; kinase 0.5 nM) came to 12.3.
